Data: US11446308B2, “Methods and compositions for the prevention and treatment of hearing loss” (St. Jude Children's Research Hospital, priority 2015, dated 2022)
Read-outs that look alike come from different tables or passages of the source.

Assays:
[1] = tested on: noise-induced hearing loss in FVB mice; test: Noise-induced hearing loss in adult mice, transtympanic injection; details: for wave 1 amplitudes of ABR at 16 kHz: vs DMSO ear
[2] = tested on: HEI-OC1 cells; test: Caspase-3/7 Glo assay, cisplatin-induced apoptosis in HEI-OC1 cell line; details: Mus musculus
[3] = tested on: cisplatin-induced hair cell loss and hearing loss in FVB mice; test: Cisplatin-induced hair cell loss and hearing loss in adult mice, transtympanic injection; details: 250 μM in 0.5% DMSO transtympanic, cisplatin 30 mg/kg IP, day 14, vs DMSO ear
[4] = HEI-OC1, 22 h, read-out: HEI-OC1 IC50
[5] = HEI-OC1, read-out: HEI-OC1 IC50

Structure (SMILES)	mean hearing protection ([1]; 250 μM transtympanic after 100 dB SPL 8-16 kHz noise 2 hrs, 8 kHz D7, 8 and 16 kHz D14)	ctbp2 puncta loss ([1]; 250 μM transtympanic, vs DMSO + noise)	wave 1 amplitudes of ABR at 16 kHz ([1]; 250 μM transtympanic)	wave 1 amplitudes of ABR at 16 kHz ([1]; 250 μM transtympanic, listed as kenpaullone)	IC50 [2, 4]	IC50 [2, 5]	outer hair cell (OHC) survival after cisplatin [3]	outer hair cell (OHC) survival after cisplatin ([3]; listed as kenpaullone)
O=C1Cc2c([nH]c3ccc(Br)cc23)-c2ccccc2N1 [Compound 4, Kenpaullone]	~12 dB	significantly protects ctbp2 puncta loss	increased	significant differences	2.1 µM	2.1 µM	significantly protected	significantly increases outer hair cell (OHC) survival
NS(=O)(=O)c1ccc(N/N=C2\C(=O)Nc3cc(Br)ccc32)cc1 [Compound 12, CDK2 inhibitor II]	–	–	–	–	0.5 µM	0.5 µM	–	–
